# Cyclic peptide permeability, from CycPeptMPDB

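Lipid, pH, incubation time, direction and concentration are not recorded in the data file. Other peptides of the study may be missing here. Entries at the database's floor value (log10 P of -10) are not listed.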

PAMPA is the parallel artificial membrane permeability assay, which has no cells and reads passive diffusion.
Permeability is in 10^-6 cm/s, converted from the database's log10 values; higher is more permeable.

SMILES,PAMPA (10^-6 cm/s)
CCCN1CC(=O)N[C@@H](CC(C)C)C(=O)N[C@@H](Cc2ccccc2)CC(=O)N2CCC[C@@H]2C(=O)N(C)[C@@H](CC(C)C)C(=O)N[C@@H](Cc2ccccc2)C(=O)N2CCC[C@@H]2C1=O,2.3
CCCN1CC(=O)N(C)[C@@H](CC(C)C)C(=O)N(Cc2ccccc2)CC(=O)N2CCC[C@@H]2C(=O)N[C@@H](CC(C)C)C(=O)N[C@@H](Cc2ccccc2)C(=O)N2CCC[C@@H]2C1=O,1.5
CC(C)C[C@@H]1C(=O)N[C@@H](Cc2ccccc2)C(=O)N2CCC[C@H]2C(=O)N(C)[C@H](C)C(=O)N(C)[C@@H](CC(C)C)C(=O)N(C)[C@@H](CC(C)C)C(=O)N2CCC[C@@H]2C(=O)N1C,2.3
CCCN1CC(=O)N[C@H](CC(C)C)C(=O)N(Cc2ccccc2)CC(=O)N2CCC[C@@H]2C(=O)N(C)[C@@H](CC(C)C)C(=O)N[C@@H](Cc2ccccc2)C1=O,9.1
CC(C)C[C@@H]1C(=O)N2CCC[C@H]2C(=O)N(C)[C@@H](CC(C)C)C(=O)N[C@@H](Cc2ccccc2)C(=O)N2CCC[C@@H]2C(=O)N[C@@H](Cc2ccccc2)CC(=O)N[C@H](CC(C)C)C(=O)N1C,4.9
CC(C)C[C@@H]1NC(=O)[C@H](CC(C)C)N(C)C(=O)C[C@H](Cc2ccccc2)NC(=O)[C@H](Cc2ccccc2)NC(=O)[C@@H](CC(C)C)N(C)C(=O)[C@H]2CCCN2C1=O,4.6
CC(C)C[C@H]1C(=O)N(C)[C@@H](CC(C)C)C(=O)N2CCC[C@H]2C(=O)N(Cc2ccccc2)CC(=O)N[C@@H](Cc2ccccc2)C(=O)N2CCC[C@H]2C(=O)N[C@@H](C)C(=O)N1C,6.9
CCCN1CC(=O)N[C@H](CC(C)C)C(=O)N(Cc2ccccc2)CC(=O)N2CCC[C@H]2C(=O)N[C@H](CC(C)C)C(=O)N[C@@H](Cc2ccccc2)C(=O)N2CCC[C@H]2C1=O,0.51
CC(C)C[C@@H]1C(=O)N[C@@H](Cc2ccccc2)CC(=O)N2CCC[C@H]2C(=O)N(C)[C@@H](CC(C)C)C(=O)N[C@@H](Cc2ccccc2)C(=O)N2CCC[C@@H]2C(=O)N[C@H](C)C(=O)N1C,9.1
CC(C)C[C@@H]1C(=O)N(C)[C@@H](CC(C)C)C(=O)N2CCC[C@H]2C(=O)N(C)[C@@H](CC(C)C)C(=O)N[C@@H](Cc2ccccc2)C(=O)N2CCC[C@H]2C(=O)N(C)[C@H](C)C(=O)N1C,4.4
CC(C)C[C@H]1NC(=O)[C@@H]2CCCN2C(=O)CN(Cc2ccccc2)C(=O)[C@H](CC(C)C)N(C)C(=O)C[C@H](Cc2ccccc2)NC(=O)[C@@H]2CCCN2C(=O)[C@H](Cc2ccccc2)NC1=O,1.4
CCCN1CC(=O)N(C)[C@@H](CC(C)C)C(=O)N(C)[C@@H](CC(C)C)C(=O)N2CCC[C@H]2C(=O)N(Cc2ccccc2)CC(=O)N[C@@H](Cc2ccccc2)C1=O,13
CC(C)C[C@@H]1NC(=O)[C@@H](C)N(C)C(=O)[C@H](Cc2ccccc2)NC(=O)[C@H](CC(C)C)NC(=O)[C@@H]2CCCN2C(=O)C[C@H](Cc2ccccc2)NC1=O,1.1
CC(C)C[C@@H]1NC(=O)[C@@H]2CCCN2C(=O)[C@H](CC(C)C)NC(=O)[C@@H](CC(C)C)N(C)C(=O)C[C@H](Cc2ccccc2)NC(=O)[C@@H]2CCCN2C(=O)[C@H](Cc2ccccc2)NC1=O,1.6

The last 2 entries again:

| SMILES | PAMPA (10^-6 cm/s) |
|---|---|
| CC(C)C[C@@H]1NC(=O)[C@@H](C)N(C)C(=O)[C@H](Cc2ccccc2)NC(=O)[C@H](CC(C)C)NC(=O)[C@@H]2CCCN2C(=O)C[C@H](Cc2ccccc2)NC1=O | 1.1 |
| CC(C)C[C@@H]1NC(=O)[C@@H]2CCCN2C(=O)[C@H](CC(C)C)NC(=O)[C@@H](CC(C)C)N(C)C(=O)C[C@H](Cc2ccccc2)NC(=O)[C@@H]2CCCN2C(=O)[C@H](Cc2ccccc2)NC1=O | 1.6 |

Values of Townsend et al. 2020, doi:10.26434/chemrxiv.13335941.v1, as listed in CycPeptMPDB.